Literature values in PMC7021761 (Nature Communications, 2020).

System: FPR2 with D2817.32G mutation
Details: compared with wild type FPR2; cited from earlier work

Substance	effect of D281G mutation on affinity for FPR2
fMLFE	greatly increase
fMLF	greatly increase
fMLFIK	greatly decrease
fMLFK	greatly decrease
